pIC50: −log10 of the molar value.
Molecular target: T1, Human pancreatic cholesterol esterase (Homo sapiens, UniProt P19835)
T1 construct: Human pancreatic cholesterol esterase was purified as described by Bosner et al; from tissue; host or cells: human pancreas (purified to homogeneity)
T1 sequence (P19835 21-753): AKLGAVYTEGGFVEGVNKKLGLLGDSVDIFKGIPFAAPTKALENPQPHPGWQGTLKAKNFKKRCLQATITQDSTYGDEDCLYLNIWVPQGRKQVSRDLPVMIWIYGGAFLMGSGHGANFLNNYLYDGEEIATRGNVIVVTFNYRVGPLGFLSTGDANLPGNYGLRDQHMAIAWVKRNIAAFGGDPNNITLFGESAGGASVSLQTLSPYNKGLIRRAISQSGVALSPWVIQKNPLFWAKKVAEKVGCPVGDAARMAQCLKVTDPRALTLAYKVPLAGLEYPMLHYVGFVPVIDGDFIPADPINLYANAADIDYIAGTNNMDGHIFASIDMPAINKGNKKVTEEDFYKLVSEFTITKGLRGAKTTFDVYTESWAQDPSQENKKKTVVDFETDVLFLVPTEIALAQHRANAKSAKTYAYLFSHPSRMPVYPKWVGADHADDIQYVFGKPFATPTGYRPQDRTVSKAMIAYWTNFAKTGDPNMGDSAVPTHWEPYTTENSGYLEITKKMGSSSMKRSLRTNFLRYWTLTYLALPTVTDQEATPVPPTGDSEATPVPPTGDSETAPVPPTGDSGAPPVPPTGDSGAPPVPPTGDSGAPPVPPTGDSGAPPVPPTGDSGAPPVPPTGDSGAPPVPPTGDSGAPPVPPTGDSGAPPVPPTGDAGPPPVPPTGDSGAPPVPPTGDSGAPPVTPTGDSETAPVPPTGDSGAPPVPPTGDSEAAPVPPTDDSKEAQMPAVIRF
Assay: Inhibition of human pancreatic cholesterol esterase, cholesteryl 14C-oleate hydrolysis
Type: biochemical
Conditions: molar value based on assumed polymer molecular weight

## agar [native (unsulfated) agar, reference compound]
  pIC50: 7.52
